Data from US8119619B2, “Pregnane steroids and their use in the treatment of CNS disorders” (Umecrine AB, priority 2001, dated 2012).

Tested on: GABA-A receptor
Assay: Cortical tissue homogenate study: radioactive chloride uptake into vesicles through the GABA-A receptor
Format: biochemical, rat
Details: 10 μM GABA alone = 100%; 3alpha-hydroxy-5alpha-pregnan-20-one 0-3000 nM + 10 μM GABA + 30 μM interacting steroid; reference steroid tested without blocker
Experimental: In these studies cortical tissue from mature male rats was homogenized in buffer. As a result of this procedure a suspension of small vesicles was formed, said vesicles having GABA-A receptors on their surface. When radioactive chloride is added to this suspension, a certain amount will enter the vesicles. This amount is related to how much open the GABA-A receptor is. Drugs that open the receptor will increase the amount of chloride in the vesicles in relation to the dosage of the drug. Similarly, drugs that close the GABA-A receptor will decrease the amount of chloride moving into the vesicles. The labeled chloride outside of the vesicles was washed away and separated from the chloride inside. The amount of radioactively labeled chloride inside the vesicles was thereafter measured in a fluid scintillator and a curve drawn.
At each experiment, a control of increasing dosages of GABA was used to ensure that the tissue sample is working properly. A second control was used to enhance the effect of 10 μM of GABA by adding increasing dosages 3alpha-hydroxy-5alpha-pregnan-20-one.
The effect is shown as a percentage change from the uptake with only 10 μM GABA and no 3 alpha-hydroxy-5alpha-pregnan-20-one in this case given the measure 100%. […]

CC(=O)[C@H]1CC[C@H]2[C@@H]3CC[C@H]4C[C@@H](O)CC[C@]4(C)[C@H]3C(=O)C[C@]12C [UC1017, 3beta hydroxy-5alpha-pregnan-11,20-dione]
Mean % (SEM) chloride uptake relative to only 10 uM GABA: 116.9(19) %
